# Permeability data for macrocyclic peptides

Data: CycPeptMPDB; original report Townsend et al. 2020, doi:10.26434/chemrxiv.13335941.v1.

PAMPA is the parallel artificial membrane permeability assay, which has no cells and reads passive diffusion.
Permeability is given as log10 of P in cm/s; higher (less negative) is more permeable.

| compound | PAMPA (log10 cm/s) |
|---|---|
| CC(C)C[C@@H]1NC(=O)[C@H](C)NC(=O)[C@H](Cc2ccccc2)NC(=O)[C@@H](CC(C)C)N(C)C(=O)[C@@H]2CCCN2C(=O)[C@@H](CC(C)C)N(C)C1=O | -5.73 |
| CC(C)C[C@@H]1NC(=O)[C@H]2CCCN2C(=O)[C@H](CC(C)C)NC(=O)[C@@H](CC(C)C)NC(=O)[C@H](C)NC(=O)[C@H](Cc2ccccc2)NC1=O | -5.24 |
| CC(C)C[C@@H]1C(=O)N[C@@H](Cc2ccccc2)CC(=O)N2CCC[C@@H]2C(=O)N(C)[C@H](CC(C)C)C(=O)N[C@@H](Cc2ccccc2)C(=O)N2CCC[C@@H]2C(=O)N[C@@H](C)C(=O)N1C | -5.52 |
| CC(C)C[C@H]1NC(=O)[C@@H](C)N(C)C(=O)[C@H](Cc2ccccc2)NC(=O)CN(Cc2ccccc2)C(=O)[C@H]2CCCN2C(=O)CN(Cc2ccccc2)C1=O | -6.22 |
| CC(C)C[C@@H]1C(=O)N[C@@H](Cc2ccccc2)C(=O)N[C@H](C)C(=O)N(C)[C@@H](CC(C)C)C(=O)N(C)[C@H](CC(C)C)C(=O)N2CCC[C@@H]2C(=O)N1C | -5.68 |
| CCCN1CC(=O)N[C@H](CC(C)C)C(=O)N(C)[C@@H](CC(C)C)C(=O)N2CCC[C@@H]2C(=O)N(Cc2ccccc2)CC(=O)N[C@@H](Cc2ccccc2)C(=O)N2CCC[C@H]2C1=O | -5.80 |
| CC(C)C[C@@H]1NC(=O)[C@H](C)N(C)C(=O)[C@@H]2CCCN2C(=O)[C@H](Cc2ccccc2)NC(=O)[C@@H](CC(C)C)N(C)C(=O)[C@@H]2CCCN2C(=O)[C@H](CC(C)C)N(C)C1=O | -6.22 |
| CC(C)C[C@H]1NC(=O)C[C@H](Cc2ccccc2)NC(=O)[C@H](Cc2ccccc2)NC(=O)[C@@H](CC(C)C)NC(=O)[C@H]2CCCN2C(=O)C[C@H](Cc2ccccc2)NC1=O | -5.30 |
| CC(C)C[C@@H]1C(=O)N[C@@H](Cc2ccccc2)C(=O)N2CCC[C@@H]2C(=O)N[C@@H](C)C(=O)N(Cc2ccccc2)CC(=O)N[C@@H](Cc2ccccc2)CC(=O)N2CCC[C@H]2C(=O)N1C | -5.96 |
| CC(C)C[C@@H]1NC(=O)[C@H](C)N(C)C(=O)[C@@H]2CCCN2C(=O)[C@H](Cc2ccccc2)NC(=O)CN(Cc2ccccc2)C(=O)[C@H]2CCCN2C(=O)[C@H](CC(C)C)N(C)C1=O | -5.58 |
| CC(C)C[C@@H]1NC(=O)[C@H](CC(C)C)N(C)C(=O)C[C@H](Cc2ccccc2)NC(=O)[C@H]2CCCN2C(=O)[C@H](Cc2ccccc2)NC(=O)[C@H](CC(C)C)N(C)C(=O)[C@H]2CCCN2C1=O | -5.37 |
| CC(C)C[C@@H]1NC(=O)C[C@H](Cc2ccccc2)NC(=O)[C@H](Cc2ccccc2)NC(=O)CN(Cc2ccccc2)C(=O)[C@@H]2CCCN2C(=O)[C@H](CC(C)C)NC1=O | -5.91 |
| CCCN1CC(=O)N(C)[C@@H](CC(C)C)C(=O)N(C)[C@@H](CC(C)C)C(=O)N2CCC[C@@H]2C(=O)N(C)[C@H](CC(C)C)C(=O)N[C@@H](Cc2ccccc2)C(=O)N2CCC[C@H]2C1=O | -5.16 |
| CC(C)C[C@H]1C(=O)N(C)[C@@H](CC(C)C)C(=O)N2CCC[C@@H]2C(=O)N(C)[C@@H](CC(C)C)C(=O)N[C@@H](Cc2ccccc2)C(=O)N2CCC[C@@H]2C(=O)N(C)[C@H](C)C(=O)N1C | -5.77 |
| CC(C)C[C@@H]1C(=O)N2CCC[C@@H]2C(=O)N(Cc2ccccc2)CC(=O)N[C@@H](Cc2ccccc2)C(=O)N2CCC[C@@H]2C(=O)N[C@H](C)C(=O)N[C@H](CC(C)C)C(=O)N1C | -6.28 |

Extract of 2 entries:

{"smiles": "CC(C)C[C@@H]1NC(=O)[C@H](C)NC(=O)[C@H](Cc2ccccc2)NC(=O)[C@@H](CC(C)C)N(C)C(=O)[C@@H]2CCCN2C(=O)[C@@H](CC(C)C)N(C)C1=O", "PAMPA (log10 cm/s)": "-5.73"}
{"smiles": "CCCN1CC(=O)N[C@H](CC(C)C)C(=O)N(C)[C@@H](CC(C)C)C(=O)N2CCC[C@@H]2C(=O)N(Cc2ccccc2)CC(=O)N[C@@H](Cc2ccccc2)C(=O)N2CCC[C@H]2C1=O", "PAMPA (log10 cm/s)": "-5.80"}

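Lipid, pH, incubation time, direction and concentration are not recorded in the data file. The list need not hold all peptides of the study. Peptides that the database sets to -10, its floor, are left out.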